BindingDB's records for patent WO2023285347 (Novo Nordisk, 2023)

Experiments:
[1] = molecular target: T1, Corticotropin-releasing factor receptor 1 (Homo sapiens, UniProt P34998); assay: Scintillation Proximity Assay
T1 sequence (P34998 whole entry): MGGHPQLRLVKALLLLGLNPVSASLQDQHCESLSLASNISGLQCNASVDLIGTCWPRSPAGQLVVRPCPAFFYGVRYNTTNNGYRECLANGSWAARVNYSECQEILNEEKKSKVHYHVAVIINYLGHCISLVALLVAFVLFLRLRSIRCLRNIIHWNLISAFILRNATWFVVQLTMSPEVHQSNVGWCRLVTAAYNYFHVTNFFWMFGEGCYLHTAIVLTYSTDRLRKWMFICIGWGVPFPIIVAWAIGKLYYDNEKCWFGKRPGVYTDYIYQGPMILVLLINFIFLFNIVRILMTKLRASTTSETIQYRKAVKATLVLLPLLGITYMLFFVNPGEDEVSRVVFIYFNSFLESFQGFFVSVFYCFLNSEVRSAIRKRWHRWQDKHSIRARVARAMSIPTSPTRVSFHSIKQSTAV
Procedure: (§1) Receptor SPA binding assays were performed in white 96-well plates in a total volume of 200 mI per well. Freeze dried analogues were dissolved in 80% dimethyl sulfoxide, 20% H20 and serial dilutions (1:10) were performed in binding buffer (20 mM Tris-HCI pH 7.4, 5 mM MgAc2, 2 mM EGTA and 0.1% ovalbumin); the final assay concentrations ranging from 1 mM to 1 pM. Analogues and 7.5-50 pg of CRFi receptor membranes/well or 0.5 pg of CRF2 receptor membranes/well were added to assay plates. A mix of wheat germ agglutinin coated SPA beads (PerkinElmer) and [125l]-Sauvagine (PerkinElmer), both in binding buffer, was added to yield 0.4 mg beads/well and 50,000 cpm of radio ligand per well. Plates were sealed and incubated at 25 °C for 2 hours in a plate shaker set at 400 rpm and thereafter centrifuged at 1500 rp for 10 minutes. SPA plates were let to stand at room temperature for about 16 hours prior to reading on microplate scintillation counter. Displacement of radioligand was measured as reduction in luminescence, and IC50 values were calculated by nonlinear regression analysis of four parameter sigmoidal dose-response curves.

[2] = molecular target: T2, Corticotropin-releasing factor receptor 2 (Homo sapiens, UniProt Q13324); assay: Scintillation Proximity Assay
T2 sequence (Q13324 whole entry): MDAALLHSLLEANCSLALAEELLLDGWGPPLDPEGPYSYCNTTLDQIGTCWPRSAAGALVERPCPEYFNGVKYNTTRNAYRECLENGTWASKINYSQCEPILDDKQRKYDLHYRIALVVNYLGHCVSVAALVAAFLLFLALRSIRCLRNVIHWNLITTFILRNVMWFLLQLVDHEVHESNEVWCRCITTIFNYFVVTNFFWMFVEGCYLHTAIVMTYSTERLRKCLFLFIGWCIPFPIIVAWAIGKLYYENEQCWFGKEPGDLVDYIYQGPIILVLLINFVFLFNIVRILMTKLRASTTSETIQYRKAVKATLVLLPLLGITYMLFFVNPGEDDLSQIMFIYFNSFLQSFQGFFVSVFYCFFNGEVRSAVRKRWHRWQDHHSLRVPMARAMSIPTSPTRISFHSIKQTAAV
Procedure: as §1

Q: Which IC50 [1] does the source give for `CC[C@H](C)[C@H](N)C(=O)N[C@H](C(=O)N[C@@H](CC(C)C)C(=O)N[C@@H](CO)C(=O)N[C@@H](CC(C)C)C(=O)N[C@@H](CC(=O)O)C(=O)N[C@H](C(=O)N1CCC[C@H]1C(=O)N[C@H](C(=O)NCC(=O)N[C@@H](CC(C)C)C(=O)N[C@@H](CC(C)C)C(=O)N[C@@H](CCC(N)=O)C(=O)N[C@H](C(=O)N[C@@H](CC(C)C)C(=O)N[C@@H](CC(C)C)C(=O)N[C@@H](CCC(=O)O)C(=O)N[C@@H](CCC(N)=O)C(=O)N[C@@H](C)C(=O)N[C@@H](CCCNC(=N)N)C(=O)N[C@@H](C)C(=O)N[C@@H](CCCNC(=N)N)C(=O)N[C@@H](C)C(=O)N[C@@H](C)C(=O)N[C@@H](CCCNC(=N)N)C(=O)N[C@@H](CCC(=O)O)C(=O)N[C@@H](CCC(N)=O)C(=O)N[C@@H](C)C(=O)N[C@H](C(=O)N[C@H](C(=O)N[C@@H](CC(N)=O)C(=O)N[C@@H](C)C(=O)N[C@@H](CCCNC(=N)N)C(=O)N[C@H](C(=O)N[C@@H](CC(C)C)C(=O)N[C@@H](C)C(=O)N[C@@H](CCCNC(=N)N)C(=O)N[C@H](C(N)=O)C(C)C)[C@@H](C)CC)[C@@H](C)O)[C@@H](C)O)[C@@H](C)CC)[C@@H](C)CC)C(C)C)C(C)C` [WO2023285347, Compound 2] here?
A: 447 nM

Q: What about the IC50 [2] of the same molecule?
A: 0.58 nM
